Laboratory results as given in ChEMBL document CHEMBL2331140, “A novel series of tacrine-selegiline hybrids with cholinesterase and monoamine oxidase inhibition activities for the treatment of Alzheimer's disease” (Eur J Med Chem, 2013).

Amino acid sequences for entries named in this document (tags omitted).
UniProt P27338, whole entry: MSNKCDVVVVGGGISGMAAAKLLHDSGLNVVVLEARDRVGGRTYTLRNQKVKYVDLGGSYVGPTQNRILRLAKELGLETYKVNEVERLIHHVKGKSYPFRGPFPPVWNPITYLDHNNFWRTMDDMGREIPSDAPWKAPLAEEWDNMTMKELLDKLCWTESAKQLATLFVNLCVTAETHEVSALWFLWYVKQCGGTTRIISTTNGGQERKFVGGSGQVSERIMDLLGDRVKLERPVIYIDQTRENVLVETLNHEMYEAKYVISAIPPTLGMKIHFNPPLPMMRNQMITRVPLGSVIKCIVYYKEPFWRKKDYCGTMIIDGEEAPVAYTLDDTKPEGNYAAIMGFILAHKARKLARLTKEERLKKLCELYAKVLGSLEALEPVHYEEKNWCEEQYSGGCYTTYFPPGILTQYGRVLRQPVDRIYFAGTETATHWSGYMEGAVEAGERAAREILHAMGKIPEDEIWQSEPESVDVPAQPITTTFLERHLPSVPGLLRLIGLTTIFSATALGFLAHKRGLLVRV

Molecular target: Amine oxidase [flavin-containing] B (Homo sapiens, UniProt P27338)
Conditions: read-out: INH

Compound `C#CCN(C)Cc1ccccc1` [PARGYLINE] has an inhibition at 0.2 µM of 56.6%.
